Experiments:
Format in all cases: functional
CWR22R = assay: Antiproliferative activity against human 22Rv1 cells assessed as reduction in cell growth incubated for 96 hrs by propidium iodide based 2D monolayer assay
How it was run: (§1)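 After 24 h recovery, compound in medium or medium alone (control wells) was added at 10 half-log concentrations from 0.0032 to 100 µM, in triplicate, with at most 0.3% DMSO. After 96 h, wells were PBS-washed, stained with 7 µg/ml PI and 0.1% Triton X-100, and fluorescence read at 530/620 nm. IC50 came from a 4-parameter fit, geometric mean.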

VCaP = assay: Antiproliferative activity against human VCaP cells assessed as reduction in cell growth incubated for 96 hrs by propidium iodide based 2D monolayer assay
How it was run: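 VCaP cells in RPMI 1640 with 10% FCS at 37 °C, 5% CO2, seeded 4,000–20,000 cells/well and left 24 h before dosing. Compounds from DMSO stocks were diluted in half-log steps in medium, 10 concentrations 0.0032–100 μM, triplicate wells, max 0.3% DMSO. After 96 h, cells were washed, stained with 7 μg/ml propidium iodide plus 0.1% Triton X-100 for 1–2 h at room temperature, and fluorescence read at ex 530/em 620 nm.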

LNCaP = assay: Antiproliferative activity against human LNCAP cells assessed as reduction in cell growth incubated for 96 hrs by propidium iodide based 2D monolayer assay; how it was run: as §1
DU-145 = assay: Antiproliferative activity against human DU145 cells assessed as reduction in cell growth incubated for 96 hrs by propidium iodide based 2D monolayer assay; how it was run: as §1

Measured: Activity

CNC(=O)c1ccc(N2C(=S)N(c3cccc(S(F)(F)(F)(F)F)c3)C(=O)C2(C)C)cc1F
active: CWR22R Dose-dependent effect | VCaP Dose-dependent effect | LNCaP Dose-dependent effect | DU-145 = Dose-dependent effect

CC(O)(CSc1cccc(C(F)(F)F)c1)C(=O)Nc1cccc(S(F)(F)(F)(F)F)c1 (racemic)
active: CWR22R Dose-dependent effect | VCaP Dose-dependent effect | LNCaP Dose-dependent effect | DU-145 = Dose-dependent effect

CC(O)(COc1ccc(C#N)cc1)C(=O)Nc1ccc(C#N)c(C(F)(F)F)c1 (racemic)
active: CWR22R Dose-dependent effect | VCaP Dose-dependent effect | LNCaP Dose-dependent effect | DU-145 = Dose-dependent effect

CC(O)(CS(=O)(=O)c1ccccc1C(F)(F)F)C(=O)Nc1ccc(S(F)(F)(F)(F)F)cc1 (racemic)
active: CWR22R Dose-dependent effect | VCaP Dose-dependent effect | LNCaP Dose-dependent effect | DU-145 = Dose-dependent effect

CC(O)(CS(=O)(=O)c1cccc(OC(F)(F)F)c1)C(=O)Nc1cccc(S(F)(F)(F)(F)F)c1 (racemic)
active: CWR22R Dose-dependent effect | VCaP Dose-dependent effect | LNCaP Dose-dependent effect | DU-145 = Dose-dependent effect

CC(O)(COc1ccc(C(F)(F)C(F)(F)F)cc1)C(=O)Nc1cc(C(F)(F)F)cc(C(F)(F)F)c1 (racemic)
active: CWR22R Dose-dependent effect | VCaP Dose-dependent effect | LNCaP Dose-dependent effect | DU-145 = Dose-dependent effect

CC(O)(CSc1ccc(S(F)(F)(F)(F)F)cc1)C(=O)Nc1ccc(C#N)c(C(F)(F)F)c1 (racemic)
active: CWR22R Dose-dependent effect | VCaP Dose-dependent effect | LNCaP Dose-dependent effect | DU-145 = Dose-dependent effect

CC1(C)C(=O)N(c2ccc(C#N)c(C(F)(F)F)c2)C(=S)N1c1cccc(S(F)(F)(F)(F)F)c1
active: CWR22R Dose-dependent effect | VCaP Dose-dependent effect | LNCaP Dose-dependent effect | DU-145 = Dose-dependent effect

CC(O)(CSc1ccc(F)cc1)C(=O)Nc1ccc(S(F)(F)(F)(F)F)cc1 (racemic)
active: CWR22R Dose-dependent effect | VCaP Dose-dependent effect | LNCaP Dose-dependent effect | DU-145 = Dose-dependent effect

CC(O)(CS(=O)(=O)c1cccc(OC(F)(F)F)c1)C(=O)Nc1ccc(S(F)(F)(F)(F)F)cc1 (racemic)
active: CWR22R Dose-dependent effect | VCaP Dose-dependent effect | LNCaP Dose-dependent effect | DU-145 = Dose-dependent effect

CC1(C)C(=O)N(c2cccc(S(F)(F)(F)(F)F)c2)C(=S)N1c1ccc(C(F)(F)F)cc1
active: CWR22R Dose-dependent effect | VCaP Dose-dependent effect | LNCaP Dose-dependent effect | DU-145 = Dose-dependent effect

CC(O)(CSc1ccc(S(F)(F)(F)(F)F)cc1)C(=O)Nc1ccc([N+](=O)[O-])cc1C(F)(F)F (racemic)
active: CWR22R Dose-dependent effect | VCaP Dose-dependent effect | LNCaP Dose-dependent effect | DU-145 = Dose-dependent effect

CC(O)(COc1ccccc1C(F)(F)F)C(=O)Nc1ccc(S(F)(F)(F)(F)F)cc1 (racemic)
active: CWR22R Dose-dependent effect | VCaP Dose-dependent effect | LNCaP Dose-dependent effect | DU-145 = Dose-dependent effect

CC(O)(COc1ccccc1OC(F)(F)F)C(=O)Nc1cccc(S(F)(F)(F)(F)F)c1 (racemic)
active: CWR22R Dose-dependent effect | VCaP Dose-dependent effect | LNCaP Dose-dependent effect | DU-145 = Dose-dependent effect

CC(O)(CS(=O)(=O)c1cc(C(F)(F)F)cc(C(F)(F)F)c1)C(=O)Nc1cccc(S(F)(F)(F)(F)F)c1 (racemic)
active: CWR22R Dose-dependent effect | VCaP Dose-dependent effect | LNCaP Dose-dependent effect | DU-145 = Dose-dependent effect

CC(O)(COc1ccc(C#N)c(F)c1)C(=O)Nc1cccc(S(F)(F)(F)(F)F)c1 (racemic)
active: CWR22R Dose-dependent effect | VCaP Dose-dependent effect | LNCaP Dose-dependent effect | DU-145 = Dose-dependent effect

CC(O)(CS(=O)(=O)c1cc(C(F)(F)F)cc(C(F)(F)F)c1)C(=O)Nc1ccc(S(F)(F)(F)(F)F)cc1 (racemic)
active: CWR22R Dose-dependent effect | VCaP Dose-dependent effect | LNCaP Dose-dependent effect | DU-145 = Dose-dependent effect

CC(O)(COc1ccc(OC(F)(F)F)cc1)C(=O)Nc1ccc(S(F)(F)(F)(F)F)cc1 (racemic)
active: CWR22R Dose-dependent effect | VCaP Dose-dependent effect | LNCaP Dose-dependent effect | DU-145 = Dose-dependent effect

CC(O)(CS(=O)(=O)c1cccc(S(F)(F)(F)(F)F)c1)C(=O)Nc1cccc(S(F)(F)(F)(F)F)c1 (racemic)
active: CWR22R Dose-dependent effect | VCaP Dose-dependent effect | LNCaP Dose-dependent effect | DU-145 = Dose-dependent effect

CC(O)(CSc1ccc(S(F)(F)(F)(F)F)cc1)C(=O)Nc1ccc(C#N)cc1C(F)(F)F (racemic)
active: CWR22R Dose-dependent effect | VCaP Dose-dependent effect | LNCaP Dose-dependent effect | DU-145 = Dose-dependent effect

CC(O)(CSc1ccccc1C(F)(F)F)C(=O)Nc1cccc(S(F)(F)(F)(F)F)c1 (racemic)
active: CWR22R Dose-dependent effect | VCaP Dose-dependent effect | LNCaP Dose-dependent effect | DU-145 = Dose-dependent effect

CC(O)(COc1ccc(S(F)(F)(F)(F)F)cc1)C(=O)Nc1cccc(S(F)(F)(F)(F)F)c1 (racemic)
active: CWR22R Dose-dependent effect | VCaP Dose-dependent effect | LNCaP Dose-dependent effect | DU-145 = Dose-dependent effect

CC(O)(CSc1ccc(C(F)(F)F)cc1)C(=O)Nc1ccc(S(F)(F)(F)(F)F)cc1 (racemic)
active: CWR22R Dose-dependent effect | VCaP Dose-dependent effect | LNCaP Dose-dependent effect | DU-145 = Dose-dependent effect
